These are literature values, as cited in US7244713B2, “Nucleoside compounds for treating viral infections” (Genelabs Technologies, Inc., priority 2003, dated 2007).

The conditions of the data set: in vivo; cited from earlier work.

For `NC(=O)c1ncn([C@@H]2O[C@H](CO)[C@@H](O)[C@H]2O)n1` [Ribavirin, 1-β-D-ribofuranosyl-1H-1,2,-4-triazole-3-carboxamide], the teratogenicity / embryotoxicity result was “teratogenic and embryotoxic”.
